# Binding of CDR-mutated scFvs to a peptide of the spike HR2 region

Values reported by Li et al. 2023, doi:10.1038/s41467-023-39022-2 (FLAb copy).

Target peptide (SARS-CoV-2 spike, HR2 region): PDVDLGDISGINAS

The variants keep the light chain, the linker and the frameworks of Ab-14 (scFv order VH, the linker GGGGSGGGGSGGGGS, VL).
VH: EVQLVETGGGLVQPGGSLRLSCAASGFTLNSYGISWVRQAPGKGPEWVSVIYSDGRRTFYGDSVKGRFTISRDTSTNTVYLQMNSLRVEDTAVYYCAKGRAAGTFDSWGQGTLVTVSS
VL: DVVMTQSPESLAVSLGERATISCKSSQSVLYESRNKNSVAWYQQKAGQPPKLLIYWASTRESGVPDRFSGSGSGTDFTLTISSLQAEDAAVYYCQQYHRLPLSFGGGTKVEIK

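The starting antibody came from a phage panning campaign against this peptide. These sequences belong to a second round, designed from the earlier measurements on random variants of the parent. Their group label is 14H_Ctrl (Ctrl: baseline library sampled from a position-specific scoring matrix, with some repeated check sequences). In AlphaSeq, yeast of one mating type display the scFv and yeast of the other type display the target. After mating in shaken culture at 30 °C for 16 h, diploids were selected and their barcode pairs sequenced. The ratio of observed to expected reads was calibrated, replicate by replicate, on BCL2-family standards whose Kd was known from biolayer interferometry. There are six technical replicates.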

The parent's heavy chain CDRs are GFTLNSYGIS, VIYSDGRRTFYGDSVK, GRAAGTFDS; each variant's own CDRs replace them letter for letter. Numbers give log10(Kd / nM), so 0 is 1 nM and 3 is 1 µM. Smaller is tighter. A mean of the replicates is given; it leaves out those without a signal. Where no diploid with the target was found in that replicate, the entry reads "ND": below detection, most likely a poor binder, though not proof of it. Three control strains display no target. For all heavy chain designs, 1% of the pairings with them gave a signal, with a median of 2.08 and one signal in twenty below 0.84, so weak values seen in few replicates may be background. For each scFv, signals with the empty controls are counted beside the result, with their mean in brackets.

| # | CDR-H1 | CDR-H2 | CDR-H3 | log10 Kd (nM) by replicate | log10 Kd (nM), mean | empty controls |
|---|---|---|---|---|---|---|
| 1 | GITLNNYGIS | VIYSDGRRTFYGDSVK | GEAAGTFDS | 2.68 1.61 1.55 2.18 1.54 1.47 | 1.84 | 0/18 |
| 2 | GFTLNSYGIS | VIYSDGLRTFYHDSVK | GRAAGTFDS | ND ND ND ND ND ND | ND | 1/18 (2.02) |
| 3 | GFHLNSYGIS | VIYSDGFRVFYGDSVK | GRAYGPFDS | ND ND ND ND ND ND | ND | 1/18 (1.02) |
| 4 | GFTLNSYGIS | VIYSDGKRTFYGDSVK | GRASGTFDS | ND ND ND ND ND ND | ND | 0/18 |
| 5 | GFTLNSYGIS | VIYADGRRTFYQDSVK | GRAAGTFDS | 0.98 0.38 0.25 0.19 0.26 0.01 | 0.35 | 1/18 (2.12) |
| 6 | GFTLNEYGIS | VIYSDGRRTSYGDSVK | GRAAGTFDS | -0.43 0.02 -0.30 -0.26 -0.09 0.56 | -0.08 | 0/18 |
| 7 | GFTPNSYGIS | VIYSDGRRKFYGDSVK | GRAAGTFPS | ND ND ND ND ND ND | ND | 0/18 |
| 8 | GFTLQSYGIS | VIYSDGRRTFYGDSVK | GRAAGRTDS | ND ND ND ND ND ND | ND | 0/18 |
| 9 | GFQLNSYGIS | VIYSDGRRTHYGDSVK | GRAAGTFDS | ND 1.76 2.12 ND ND ND | 1.94 | 0/18 |
| 10 | GFALNSYGIS | VIYSDGRRTFYHDSVK | GQAAGTFDS | 1.01 1.15 0.55 0.49 1.17 0.61 | 0.83 | 1/18 (2.30) |
| 11 | GFTLNSYGIS | VIYADGRRTWIGDSVD | GRQAGTFDS | ND ND ND ND ND ND | ND | 0/18 |
| 12 | GFTLNMYGIS | VIYSDGRRTFYGDSVK | GRAAGTFDW | ND 0.58 ND 1.46 0.50 1.65 | 1.05 | 0/18 |
| 13 | GFTLNSYGIS | VIYSDGRRTFYGDSVS | VRNAGTFDS | ND ND ND ND ND ND | ND | 0/18 |
| 14 | GFTLNSYGIS | VIYSDGRRTFYGDSVK | GSVAGTFDS | 0.57 0.76 -0.13 0.30 0.47 ND | 0.39 | 0/18 |
| 15 | GFTLNSYGIS | VIYADGRRTFYGDSVK | WRAAGTFDS | ND ND ND ND ND ND | ND | 0/18 |
| 16 | GFTLESYGIS | VIYSDGRRTAYNDSVK | GKAACHFDS | ND ND ND ND 3.39 ND | 3.39 | 1/18 (2.68) |
| 17 | GFTLNSYGIS | VIYADGRRTFYTDSVK | GQAAGTFDS | -0.43 0.13 -0.14 -0.21 -0.09 0.69 | -0.01 | 0/18 |
| 18 | KFTLTSYGIS | VIYSDGTRTFYADSVK | GRAAGTFDK | ND ND ND 2.38 ND ND | 2.38 | 0/18 |
| 19 | GFTLNSYGIS | VIYSDGRRTAYGDSVK | GREAGRFDS | ND ND ND ND ND ND | ND | 0/18 |
| 20 | GFTLNSYGIS | VIYSDGKRTFYADKVK | GRAAGTFDS | 0.96 0.68 0.51 0.53 1.85 1.16 | 0.95 | 0/18 |
| 21 | GFTLNSYGIS | VIYSDGMRTFYGDSVK | GRAALTFDS | ND ND ND ND ND ND | ND | 0/18 |
| 22 | GFTLNSYGIS | VIYSDGRRTFYGDSVK | GREAGTFDC | ND ND ND ND ND ND | ND | 0/18 |
| 23 | GFTLNSYGIS | VIYSDGFRTAYLDSVK | GRAAGTFDS | ND 1.03 1.12 0.63 1.57 0.95 | 1.06 | 1/18 (1.43) |
| 24 | GFTLNSYGIS | VIYSDGRRTFYGDTVK | GRAAGTFDS | ND ND ND ND ND ND | ND | 0/18 |
| 25 | GQTLNEYGIS | VIYADGERTFYGDSVK | GRAAGTFDS | -1.22 -0.69 -0.97 0.03 -1.32 -0.46 | -0.77 | 0/18 |
| 26 | GFTLESYGIS | VIYSDGRRTFYRDSVK | GRAAGTFDS | ND ND ND ND ND 0.71 | 0.71 | 0/18 |
| 27 | GFHLNEYGIS | VIYSDGRRTMYGDSVK | GRAAGTFDS | 1.25 0.76 0.14 0.69 0.44 ND | 0.66 | 1/18 (-0.02) |
| 28 | GFTLNSYGIS | VIYSDGRRTAYGDRVK | GRAAGTFDS | ND ND 1.22 1.47 ND 1.42 | 1.37 | 0/18 |
| 29 | GETLNCYGIS | VIYSDGRRTFYGDSVK | RRAALTFDS | ND ND ND ND ND ND | ND | 0/18 |
| 30 | GFTLQSYGIS | VIYSDGRRTFYGDSVK | GRAAGVFDS | ND ND ND ND ND ND | ND | 0/18 |
| 31 | GFTLNEYGIS | VIYSDGMRTAYLDSVK | GRAAGTFDS | ND -0.33 -0.57 -0.50 0.08 0.42 | -0.18 | 0/18 |
| 32 | GFTLNSYGIS | VIYSDGQRTFYNDSVK | GEQAGTFDS | ND ND 2.59 ND 1.95 ND | 2.27 | 0/18 |
| 33 | GFTLNSYGIS | VIYSDGRRTAYGDSVK | GYAAGTFDS | 0.93 1.29 0.55 1.60 0.77 0.96 | 1.01 | 0/18 |
| 34 | GFTLNSYGIS | VIYSDGRRTWYGDSVK | GRAACTFDS | ND 1.69 ND ND 1.97 ND | 1.83 | 0/18 |
| 35 | KFTLNSYGIS | VIYSDGRRTFYGDSVK | GQNAGTFDS | 1.53 1.42 2.12 2.02 2.17 2.05 | 1.88 | 0/18 |
| 36 | GFTLNEYGIS | VIYSDGRRVFYADSVK | GRAAGLFES | ND ND ND ND 3.33 ND | 3.33 | 1/18 (2.69) |
| 37 | GFTLHSYGIS | VIYSDGRRTFYGDNVR | GRAAGTFLS | ND ND ND ND ND ND | ND | 0/18 |
| 38 | GFTLNSYGIS | VIYSDGRRTFYGDSVK | RRAAGTFDS | ND ND ND ND ND ND | ND | 0/18 |
| 39 | GFTLNSYGIS | VRYADGVRTFYGDSVK | GRAAGTFDS | ND ND ND ND ND ND | ND | 0/18 |
| 40 | GFTLDSYGIS | VIYSDGRRTFYGDSVK | SRAAGTFDS | ND ND ND ND ND ND | ND | 0/18 |

The 6 strongest on average among those seen in every replicate, once more:

| CDR-H1 | CDR-H2 | CDR-H3 | log10 Kd (nM) by replicate | log10 Kd (nM), mean | empty controls |
|---|---|---|---|---|---|
| GQTLNEYGIS | VIYADGERTFYGDSVK | GRAAGTFDS | -1.22 -0.69 -0.97 0.03 -1.32 -0.46 | -0.77 | 0/18 |
| GFTLNEYGIS | VIYSDGRRTSYGDSVK | GRAAGTFDS | -0.43 0.02 -0.30 -0.26 -0.09 0.56 | -0.08 | 0/18 |
| GFTLNSYGIS | VIYADGRRTFYTDSVK | GQAAGTFDS | -0.43 0.13 -0.14 -0.21 -0.09 0.69 | -0.01 | 0/18 |
| GFTLNSYGIS | VIYADGRRTFYQDSVK | GRAAGTFDS | 0.98 0.38 0.25 0.19 0.26 0.01 | 0.35 | 1/18 (2.12) |
| GFALNSYGIS | VIYSDGRRTFYHDSVK | GQAAGTFDS | 1.01 1.15 0.55 0.49 1.17 0.61 | 0.83 | 1/18 (2.30) |
| GFTLNSYGIS | VIYSDGKRTFYADKVK | GRAAGTFDS | 0.96 0.68 0.51 0.53 1.85 1.16 | 0.95 | 0/18 |

The authors averaged sequences with at least three values out of six and counted those with two or fewer as poor binders. Values of this round are not directly comparable with the first-round values of the same sequences. Of ten entries with the parent sequence, four were seen in most replicates (averages 0.34 to 2.37), three in one and three in none, so single entries are noisy.